Literature values, collected in US11116748B2, “Compositions and methods for reducing weight gain” (THE MEDICAL COLLEGE OF WISCONSIN, INC., priority 2018, dated 2021).

Test system: gut microbiome
Settings: mice receiving risperidone; cited from earlier work

Compound: Cc1nc2n(c(=O)c1CCN1CCC(c3noc4cc(F)ccc34)CC1)CCCC2 [risperidone]
- non-aerobic resting metabolism: suppress non-aerobic resting metabolism
